Laboratory results reported in article PMC8336524, “Yeast Bromodomain Factor 1 and Its Human Homolog TAF1 Play Conserved Roles in Promoting Homologous Recombination” (Advanced Science, 2021).

T1: 6xHis‐Bdf1 (yeast, UniProt P35817 1-686)
T1 construct: Bromodomain Factor 1 (Bdf1), yeast; source: E. coli (BL21), pET30a(+)
T1 sequence (looked up): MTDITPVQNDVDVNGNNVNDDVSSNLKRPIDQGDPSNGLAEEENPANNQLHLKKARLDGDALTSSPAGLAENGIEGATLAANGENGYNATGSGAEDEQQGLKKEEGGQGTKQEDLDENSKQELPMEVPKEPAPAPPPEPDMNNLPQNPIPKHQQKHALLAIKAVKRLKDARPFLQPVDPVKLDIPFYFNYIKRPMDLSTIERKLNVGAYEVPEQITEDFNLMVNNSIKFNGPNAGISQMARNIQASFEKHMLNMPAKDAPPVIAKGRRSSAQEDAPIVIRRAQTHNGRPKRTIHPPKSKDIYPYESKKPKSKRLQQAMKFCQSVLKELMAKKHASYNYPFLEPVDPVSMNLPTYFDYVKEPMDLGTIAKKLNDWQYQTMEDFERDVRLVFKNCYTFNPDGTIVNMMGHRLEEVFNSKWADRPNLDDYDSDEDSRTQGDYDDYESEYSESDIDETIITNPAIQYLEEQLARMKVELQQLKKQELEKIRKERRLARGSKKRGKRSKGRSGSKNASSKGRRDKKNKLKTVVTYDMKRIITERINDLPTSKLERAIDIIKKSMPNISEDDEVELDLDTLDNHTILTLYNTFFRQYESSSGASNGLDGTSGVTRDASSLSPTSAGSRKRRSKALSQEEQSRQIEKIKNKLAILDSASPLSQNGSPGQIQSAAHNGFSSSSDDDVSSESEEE

T2: GST‐Bdf1 (yeast, UniProt P35817 1-686)
T2 construct: Bromodomain Factor 1 (Bdf1), yeast, full length; also called Bromodomain Factor 1; WT Bdf1; source: E. coli (BL21), pGEX4T3; immobilized onto GSH‐sepharose beads
T2 sequence (looked up): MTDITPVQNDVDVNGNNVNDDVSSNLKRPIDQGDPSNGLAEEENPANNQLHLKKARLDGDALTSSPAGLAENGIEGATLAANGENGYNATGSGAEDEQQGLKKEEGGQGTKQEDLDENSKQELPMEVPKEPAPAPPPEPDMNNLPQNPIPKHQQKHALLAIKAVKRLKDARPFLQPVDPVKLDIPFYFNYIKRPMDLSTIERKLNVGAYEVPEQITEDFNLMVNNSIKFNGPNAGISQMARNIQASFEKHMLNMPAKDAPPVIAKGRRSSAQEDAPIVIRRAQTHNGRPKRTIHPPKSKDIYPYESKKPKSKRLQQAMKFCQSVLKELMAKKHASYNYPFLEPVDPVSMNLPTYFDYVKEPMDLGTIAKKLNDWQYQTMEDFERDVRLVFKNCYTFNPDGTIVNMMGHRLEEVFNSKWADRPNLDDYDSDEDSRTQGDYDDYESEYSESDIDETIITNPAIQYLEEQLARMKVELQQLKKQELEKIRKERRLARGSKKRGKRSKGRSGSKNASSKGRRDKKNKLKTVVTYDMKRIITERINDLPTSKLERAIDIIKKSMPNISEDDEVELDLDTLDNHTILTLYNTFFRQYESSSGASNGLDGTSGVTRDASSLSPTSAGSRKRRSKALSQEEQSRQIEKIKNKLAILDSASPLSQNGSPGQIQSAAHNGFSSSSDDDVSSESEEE


Key:
6xHis‐Bdf1 = target: T1, 6xHis‐Bdf1; assay: pull-down; GST or GST fusion proteins immobilized on GSH‐sepharose beads, incubated with His‐tagged proteins at 4 °C for 4 h; wash 20 mM Tris–HCl pH 7.4, 200 mM NaCl, 0.5 mM EDTA; Western blot with anti‐His antibody; conditions: both partners purified
GST‐Bdf1 = target: T2, GST‐Bdf1; assay: as above; conditions: both partners purified

binding result (6xHis‐Bdf1) | binding result (GST‐Bdf1) | Binder
binds | – | GST‐Rfa1 (natural protein, yeast, UniProt P22336 1-621, looked up, Rfa1, subunit of Replication Protein A (RPA), yeast; also called full‐length GST Rfa1; source: E. coli (BL21), pGEX4T3; immobilized onto GSH‐sepharose beads) MSSVQLSRGDFHSIFTNKQRYDNPTGGVYQVYNTRKSDGANSNRKNLIMISDGIYHMKALLRNQAASKFQSMELQRGDIIRVIIAEPAIVRERKKYVLLVDDFELVQSRADMVNQTSTFLDNYFSEHPNETLKDEDITDSGNVANQTNASNAGVPDMLHSNSNLNANERKFANENPNSQKTRPIFAIEQLSPYQNVWTIKARVSYKGEIKTWHNQRGDGKLFNVNFLDTSGEIRATAFNDFATKFNEILQEGKVYYVSKAKLQPAKPQFTNLTHPYELNLDRDTVIEECFDESNVPKTHFNFIKLDAIQNQEVNSNVDVLGIIQTINPHFELTSRAGKKFDRRDITIVDDSGFSISVGLWNQQALDFNLPEGSVAAIKGVRVTDFGGKSLSMGFSSTLIPNPEIPEAYALKGWYDSKGRNANFITLKQEPGMGGQSAASLTKFIAQRITIARAQAENLGRSEKGDFFSVKAAISFLKVDNFAYPACSNENCNKKVLEQPDGTWRCEKCDTNNARPNWRYILTISIIDETNQLWLTLFDDQAKQLLGVDANTLMSLKEEDPNEFTKITQSIQMNEYDFRIRAREDTYNDQSRIRYTVANLHSLNYRAEADYLADELSKALLA
– | binds | 6xHis‐Rfa1 (natural protein, yeast, UniProt P22336 1-621, looked up, Rfa1, subunit of Replication Protein A (RPA), yeast; also called RPA (in the text on the truncations); source: E. coli (BL21), pET30a(+)) MSSVQLSRGDFHSIFTNKQRYDNPTGGVYQVYNTRKSDGANSNRKNLIMISDGIYHMKALLRNQAASKFQSMELQRGDIIRVIIAEPAIVRERKKYVLLVDDFELVQSRADMVNQTSTFLDNYFSEHPNETLKDEDITDSGNVANQTNASNAGVPDMLHSNSNLNANERKFANENPNSQKTRPIFAIEQLSPYQNVWTIKARVSYKGEIKTWHNQRGDGKLFNVNFLDTSGEIRATAFNDFATKFNEILQEGKVYYVSKAKLQPAKPQFTNLTHPYELNLDRDTVIEECFDESNVPKTHFNFIKLDAIQNQEVNSNVDVLGIIQTINPHFELTSRAGKKFDRRDITIVDDSGFSISVGLWNQQALDFNLPEGSVAAIKGVRVTDFGGKSLSMGFSSTLIPNPEIPEAYALKGWYDSKGRNANFITLKQEPGMGGQSAASLTKFIAQRITIARAQAENLGRSEKGDFFSVKAAISFLKVDNFAYPACSNENCNKKVLEQPDGTWRCEKCDTNNARPNWRYILTISIIDETNQLWLTLFDDQAKQLLGVDANTLMSLKEEDPNEFTKITQSIQMNEYDFRIRAREDTYNDQSRIRYTVANLHSLNYRAEADYLADELSKALLA
